The results in this text go back to PubChem BioAssay AID488789 (Broad Institute, 2010).

By UniProt entry, the sequences of proteins in these tests, tags left out.
UniProt P00761, whole entry: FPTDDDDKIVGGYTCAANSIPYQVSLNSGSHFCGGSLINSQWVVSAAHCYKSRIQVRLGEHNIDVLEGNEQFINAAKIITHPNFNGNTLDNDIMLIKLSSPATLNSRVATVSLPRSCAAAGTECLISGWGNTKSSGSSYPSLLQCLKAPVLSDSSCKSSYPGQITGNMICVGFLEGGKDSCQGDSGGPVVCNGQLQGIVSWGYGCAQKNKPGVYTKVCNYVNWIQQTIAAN

For this experiment, the target named is Trypsin (Sus scrofa) (UniProt P00761). Put plainly: porcine trypsin inhibitors, dose response, selectivity assay for Rce1 protease inhibitor project, biochemical, quenched peptide fluorescence, cherry-pick (AID 488789).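 Also: more negative means stronger trypsin inhibition.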 As to conditions: quenched peptide cleavage fluorescence; at 10 µM (top of the series).

This is a selection; strong and weak results do not stand in their true shares. Entries with a potency or affinity are not part of this list. Inconclusive results are not listed. Calls of active or inactive are those of the source.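 The calls were made as follows: active = samples whose fitted half-maximal inhibition concentration is no more than ten times the top valid dose tested; inconclusive = flat response between -70 and -30, or invalid curve fit; inactive = flat within 30 of zero, potency above limit, or signal rising.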

`CN1CCC(Nc2cccc(F)c2)CC1`: the activity change, negative = inhibition was inactive: 1.64%.
